Several values for one entry are separate records, joined by “and”; a condition that tells them apart may be missing. Equal entries are not always repeated. This is a selection; strong and weak results do not stand in their true shares. Activity calls are given as the source filed them. Calls follow the shape of the dose curve; as a rule, active = well fitted inhibition curve with a large enough effect; inconclusive = small, poorly fitted or top-dose-only effect; inactive = flat fitted curve, though single readings scatter.

Chains of the proteins cited; added tags and fusions are not shown. Lines headed by an entry give the natural chain unless they say otherwise; changes in a name come on top.
UniProt Q9HC16: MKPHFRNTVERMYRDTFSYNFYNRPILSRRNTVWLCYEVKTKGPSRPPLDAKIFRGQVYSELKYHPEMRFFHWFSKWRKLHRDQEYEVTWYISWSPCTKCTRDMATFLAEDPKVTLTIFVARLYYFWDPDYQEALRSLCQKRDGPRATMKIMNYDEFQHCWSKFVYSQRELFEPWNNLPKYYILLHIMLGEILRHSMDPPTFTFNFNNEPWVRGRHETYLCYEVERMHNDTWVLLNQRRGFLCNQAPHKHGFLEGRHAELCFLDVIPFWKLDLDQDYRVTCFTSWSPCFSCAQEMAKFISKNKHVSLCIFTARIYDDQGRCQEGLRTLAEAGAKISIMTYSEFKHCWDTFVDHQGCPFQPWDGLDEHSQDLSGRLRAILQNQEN

This experiment has as its target DNA dC->dU-editing enzyme APOBEC-3G (Homo sapiens) (UniProt Q9HC16). Description: qHTS for inhibitors of Vif-A3G interactions: Validation. Also: 0% is about no effect. To be noted: Vif-A3G protein interaction assay; at 46.1 µM (top of the series). An excerpt: The recent discovery and characterization of host restriction factors, which provide a potent defense to invading retroviruses, has provided new targets for antiviral drug development. APOBEC3G (A3G) and APOBEC3F (A3F) are potent cytidine deaminases that block HIV-1 replication; HIV-1 expresses the Vif protein, which counteracts A3G and A3F by binding to them and inducing their proteasomal degradation.
The Vif-A3G and Vif-A3F interactions provide two potential targets for development of small molecules which can interfere with the ability of Vif to degrade A3G or A3F. […] To identify inhibitors that can interfere with Vif mediated degradation of A3G and A3F, we have developed Hela cell lines that stably express A3G or A3F tagged with eYFP at the C-terminal end (A3G-eYFP or A3F-eYFP, respectively) and Vif. In the absence of an inhibitor, Vif induces degradation of A3G-eYFP and A3F-eYFP, and the cells are not fluorescent. In the presence of an inhibitor, it is expected that Vif will be unable to degrade A3G-eYFP and/or A3F-eYFP, resulting in an increase in yellow fluorescence. In this assays Vif A3G was screened against the Molecular Library Small Molecile Repository (MLSMR). […]
5 uL of 700 cells/well of A3G-YFP cells are dispensed into black, clear bottom plates. […] The plates are incubated overnight at 37 deg C and then read on the TTP Acumen (Ex 488/ Em 500-530).
Take `CN(C(=O)Cc1ccc(Cl)c(Cl)c1)[C@H]1CCCC[C@@H]1N1CCCC1`: the activity change, negative = inhibition is inactive: 5.24% and inactive: 3.93% and inactive: -11%.

The values are drawn from PubChem BioAssay AID588379 (National Center for Advancing Translational Sciences (NCATS), 2011).
